Laboratory results reported in PMC2363545 (British Journal of Cancer, 2000).

The chains behind the UniProt entries cited, without tags or fusion partners. Residues count along the entry.
UniProt P01344, 25-180: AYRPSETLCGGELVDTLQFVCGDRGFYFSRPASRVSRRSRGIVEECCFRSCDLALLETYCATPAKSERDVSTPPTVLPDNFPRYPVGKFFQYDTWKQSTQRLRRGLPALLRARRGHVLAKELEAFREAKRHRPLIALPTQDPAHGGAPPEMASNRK

Key:
IGF-II = IGF-II (Homo sapiens, UniProt P01344)
[1] = test system: B16 murine melanoma cells
[2] = test system: premature ovarian failure; details: in vivo

Insulin
binding to IGF2R constructs (IGF-II): did not bind

Ro 31-8220
effect on -MSH-induced melanogenesis [1]: significantly (P<0.05) inhibit

goserelin
patients with biochemical evidence of premature ovarian failure [2]: five
prevention of chemotherapy-induced premature ovarian failure [2]: did not prevent
